Measured values from patent publication US6403631B1, “Method and compositions for enhancing pregnancy success in an animal” (Equitech Laboratories, Inc., priority 1995, dated 2002).

System: corpora lutea segments from cycling mares
Experiment: In vitro progesterone production by corpus luteum segments (Example 8)
Format: cell-based
Conditions: 100 ng hCG vs absence of hCG; p=0.033
Procedure: Corpus luteum tissue was collected surgically and was dissected into segments approximately 2×2 mm^2. Segments were incubated in the following manner: [table] At completion of culture, segments were frozen until assayed for DNA content. All media progesterone concentrations were subsequently adjusted for DNA content of the appropriate segment.

hCG: human chorionic gonadotropin (hCG), supplement of luteal tissue culture
media progesterone concentrations, adjusted for DNA content: significantly higher
